PubChem BioAssay AID588391 (Broad Institute, 2011)
The list shows a part of the results, in another mix than the full data. Activity calls are given as the source filed them.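 The calls were made as follows: active = mean inhibition across replicates of 30% or more, whatever share of single replicates reach that level; inconclusive = mean inhibition below 30% while every single replicate reaches 30%; inactive = the rest.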

Amino acid sequences for entries named in this document (tags omitted).
UniProt P07237, whole entry: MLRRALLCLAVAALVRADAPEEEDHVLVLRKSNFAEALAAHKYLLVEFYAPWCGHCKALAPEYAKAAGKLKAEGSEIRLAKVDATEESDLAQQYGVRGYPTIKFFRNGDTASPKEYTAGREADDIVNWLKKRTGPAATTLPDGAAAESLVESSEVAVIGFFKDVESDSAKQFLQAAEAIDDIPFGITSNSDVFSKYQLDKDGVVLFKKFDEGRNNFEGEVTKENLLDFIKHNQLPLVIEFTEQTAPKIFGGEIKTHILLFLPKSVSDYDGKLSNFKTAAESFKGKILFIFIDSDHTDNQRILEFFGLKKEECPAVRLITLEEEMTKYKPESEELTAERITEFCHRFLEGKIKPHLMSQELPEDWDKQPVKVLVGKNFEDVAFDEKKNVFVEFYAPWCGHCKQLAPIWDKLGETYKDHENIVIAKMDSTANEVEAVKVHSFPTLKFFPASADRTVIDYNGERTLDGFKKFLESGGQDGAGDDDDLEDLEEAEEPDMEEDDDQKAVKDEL

The molecules below were run against Protein disulfide-isomerase (Homo sapiens) (UniProt P07237) (assay: inhibitors of human PDI, primary screen, biochemical, turbidity, single point, plate reader (AID 588391;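 also: absorbance from insulin aggregation driven by PDI reduction with DTT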)). Settings: PDI insulin aggregation turbidity, A650, 90 min; at 10 µM; hits give high values.

| SMILES | inhibition |
| --- | --- |
| CCC(=O)N(c1ccccc1)C1(COC)CCN(CCc2cccs2)CC1 | inactive: 2.94% |
| CCC(=O)N(c1ccccc1)C1(COC)CCN(CCn2nnn(CC)c2=O)CC1 | inactive: 3.86% |
